# From PubChem BioAssay AID588676 (Johns Hopkins Ion Channel Center, 2011)
# Chains of the proteins cited; added tags and fusions are not shown.
# UniProt Q96LB2, whole entry: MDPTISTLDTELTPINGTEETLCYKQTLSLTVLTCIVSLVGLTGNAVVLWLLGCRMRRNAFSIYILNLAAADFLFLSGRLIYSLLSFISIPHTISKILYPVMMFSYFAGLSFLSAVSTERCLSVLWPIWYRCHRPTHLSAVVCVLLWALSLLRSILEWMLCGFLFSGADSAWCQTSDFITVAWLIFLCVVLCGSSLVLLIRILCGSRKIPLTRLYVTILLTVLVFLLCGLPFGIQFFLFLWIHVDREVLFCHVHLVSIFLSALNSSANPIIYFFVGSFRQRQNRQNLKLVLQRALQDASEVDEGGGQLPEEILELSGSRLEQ
# The entries are a selection whose mix differs from that of the whole data set. Activity calls are given as the source filed them.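 The calls were made as follows: active = calcium-response B-score plate-corrected more than 3 library SD below zero, starting fluorescence within 5 deviations, no agonist response on first addition; inactive = the rest.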
# Target: Mas-related G-protein coupled receptor member X1 (Homo sapiens) (UniProt Q96LB2)
# Experiment: blockade of BAM8-22-evoked MrgX1 calcium response – HEK293 cells, Fluo-4 calcium flux, primary screen (AID 588676)
# Details: Fluo-4, BAM8-22 antagonism, at 10 µM
row,SMILES,outcome
1,O=[N+]([O-])c1cccc2n[nH]nc12,inactive
2,COc1ccccc1OP(C)(=O)Nc1c(C)n(C)n(-c2ccccc2)c1=O (stereo unspecified),inactive
3,CCc1ccc(OP(C)(=O)Nc2cccnc2)cc1 (stereo unspecified),inactive
4,O=[N+]([O-])c1cc([N+](=O)[O-])c(CCNc2ccccc2)c([N+](=O)[O-])c1,inactive
5,Cc1ccc(NP(=O)(Oc2ccccc2)Oc2ccccc2)nc1,inactive
6,CP(=O)(Oc1ccccc1)N1CCOC1=O (stereo unspecified),inactive
7,C[N+]1=C2C=CC=CC=C2SC12C([N+](=O)[O-])=CC([N+](=O)[O-])=C[C-]2[N+](=O)[O-] (stereo unspecified),inactive
8,COc1ccccc1OP(C)(=O)Nc1ccccc1Br (stereo unspecified),inactive
9,Nc1ccc([As](=O)(O)c2ccc(N)cc2)cc1,inactive
10,CC(C)(C)c1ccc(OP(C)(=O)O)cc1,inactive
11,CP(=O)(Nc1ccc(Cl)cc1)Oc1ccc(F)cc1 (stereo unspecified),inactive
12,CCN(/C(=N/P(=O)(N1CCOCC1)N1CCOCC1)N1CCOCC1)c1ccc(OC)cc1,inactive
13,CN(C)C(=O)OCCc1n(C)cc[n+]1C,inactive
14,CC(C)=N/N=C(\N)N[N+](=O)[O-],inactive
15,CN(C)C(=O)c1c([N+](=O)[O-])cc([N+](=O)[O-])cc1[N+](=O)[O-],inactive
16,CC1CCN(C(=O)Oc2c(Cl)cc(Cl)c3cccnc23)CC1,inactive

row,SMILES,outcome
1,Nc1ccc2c(ccc3cccnc32)n1.O=[N+]([O-])c1cc([N+](=O)[O-])c(O)c([N+](=O)[O-])c1,inactive
2,O=C(Nc1cc([As](=O)(O)O)ccc1O)c1ccccc1,inactive
3,CCOC(=O)c1ccc(NP(C)(=O)Oc2ccc(Cl)cc2)cc1 (stereo unspecified),inactive
4,CP(=O)(OC12CC3CC(CC(C3)C1)C2)OC12CC3CC(CC(C3)C1)C2,inactive
5,CC(C)(C)C(=O)NC(Sc1ccncn1)C(Cl)(Cl)Cl (stereo unspecified),inactive
6,O=[N+]([O-])c1ncn(CCn2ncnc2[N+](=O)[O-])n1,inactive
7,O=[N+]([O-])c1cccc(NC2=NCC(CBr)S2)c1 (stereo unspecified),inactive
8,O=C(O)CNc1ccc([As](=O)(O)O)cc1,inactive
9,CC(=O)Nc1ccc([As](=O)(O)O)cc1,inactive
10,O=C(O)c1ccccc1[As](=O)(O)O,inactive
11,O=P(Nc1nc2ccc(Cl)cc2s1)(c1ccccc1)c1ccccc1,inactive
12,Cc1cc(C)cc(OP(C)(=O)Nc2cccc(C(F)(F)F)c2)c1 (stereo unspecified),inactive
13,COc1ccccc1OP(C)(=O)Nc1ccc(C)c(C)c1 (stereo unspecified),inactive
14,CN(C(=O)Cc1ccc(Cl)c(Cl)c1)[C@H]1CCCC[C@@H]1N1CCCC1,inactive
15,Cc1ccc(NP(=O)(Oc2ccccc2F)Oc2ccccc2F)nc1,inactive
